This test addresses Mpc1 (Mpc1/Mpc3 hetero-dimer, mitochondrial pyruvate carrier) (Saccharomyces cerevisiae, UniProt P53157+P53311). The test is described as follows: biochemical.

Sequences of proteins named here, by UniProt entry; tags and fusion partners are left off. A change or cut given only in a name is not applied to a line headed by its entry. Residues count along the entry.
UniProt P53157: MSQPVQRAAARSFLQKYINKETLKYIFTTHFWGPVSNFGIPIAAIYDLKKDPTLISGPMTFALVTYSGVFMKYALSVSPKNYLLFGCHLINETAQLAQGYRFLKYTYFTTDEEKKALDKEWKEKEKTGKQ
UniProt P53311, 21-146: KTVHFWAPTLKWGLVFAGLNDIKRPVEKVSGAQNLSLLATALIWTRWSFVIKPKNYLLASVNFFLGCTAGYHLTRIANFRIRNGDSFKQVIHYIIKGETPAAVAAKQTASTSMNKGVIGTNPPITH

SMILES strings stand for the structures.

As usually defined, the IC50 is the concentration needed to halve the response being measured. A low value points to inhibition by little substance.

`CCCOc1ccccc1-c1nc2nn[nH]c2c(=O)[nH]1` [Zaprinast] displayed an IC50 of 18 ± 8 µM.

The values above are taken from article PMC6517818, “The yeast mitochondrial pyruvate carrier is a hetero‐dimer in its functional state” (The EMBO Journal, 2019).
